Data: US10077277B2, “Bicyclic heteroarylaminoalkyl phenyl derivatives as PI3K inhibitors” (Incyte Corporation, priority 2014, dated 2018)

Target: human JAK1 (Homo sapiens, UniProt P23458)
Experiment: In vitro JAK kinase assay (Example J), JAK1
Type: biochemical
Settings: Assay J at 1 mM ATP

IC50: < 10 nM
Compound: CN(C)Cc1cc(F)cc(OC2CCN(CC(CC#N)n3cc(-c4ncnc5[nH]ccc45)cn3)CC2)c1 (stereo not shown) [Example 14, 4-(4-{3-[(dimethylamino)methyl]-5-fluorophenoxy}piperidin-1-yl)-3-[4-(7H-pyrrolo[2,3-d]pyrimidin-4-yl)-1H-pyrazol-1-yl]butanenitrile]
